Key:
rat liver COMT = target: T1, rat liver COMT (Rattus norvegicus, UniProt P22734); experiment: In vitro COMT inhibition, rat liver homogenate (methylation of adrenaline to metanephrine); format: biochemical
T1 construct: Aliquots of 0.5 ml of liver and whole brain homogenates were preincubated; from tissue; host or cells: liver homogenate of male Wistar rats
T1 sequence (P22734 44-264 limits assumed): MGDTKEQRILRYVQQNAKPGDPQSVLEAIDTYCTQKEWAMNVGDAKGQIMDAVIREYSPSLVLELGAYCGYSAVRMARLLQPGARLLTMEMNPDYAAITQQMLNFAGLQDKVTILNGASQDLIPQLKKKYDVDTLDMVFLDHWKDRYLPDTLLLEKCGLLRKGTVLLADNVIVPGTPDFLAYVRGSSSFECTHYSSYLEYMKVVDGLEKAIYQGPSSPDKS

brain COMT = target: T2, brain COMT (Rattus norvegicus, UniProt P22734); experiment: Brain COMT activity in homogenates after administration of test compounds by gastric tube; format: in vivo
T2 construct: Aliquots of 0.5 ml of liver and whole brain homogenates were preincubated; from tissue; host or cells: whole brain homogenate of male Wistar rats
T2 sequence (P22734 1-264): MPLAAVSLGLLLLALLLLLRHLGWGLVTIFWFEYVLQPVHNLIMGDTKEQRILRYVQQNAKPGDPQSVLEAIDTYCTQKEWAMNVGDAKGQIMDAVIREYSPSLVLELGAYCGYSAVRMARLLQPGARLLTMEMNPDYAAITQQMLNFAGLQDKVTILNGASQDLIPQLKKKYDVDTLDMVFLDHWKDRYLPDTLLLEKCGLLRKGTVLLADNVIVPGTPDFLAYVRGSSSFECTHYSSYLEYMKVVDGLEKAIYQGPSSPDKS

liver COMT = target: T3, liver COMT (Rattus norvegicus, UniProt P22734); experiment: Liver COMT activity in homogenates after administration of test compounds by gastric tube; format: in vivo; conditions: for % inhibition of COMT activity, liver, 9 h: 9 h after administration by gastric tube
T3 construct: Aliquots of 0.5 ml of liver and whole brain homogenates were preincubated; from tissue; host or cells: liver homogenate of male Wistar rats
T3 sequence (P22734 44-264 limits assumed): T1 sequence (P22734 44-264 limits assumed)

O=C(Cc1ccccc1)c1cc(O)c(O)c([N+](=O)[O-])c1 [Compound B, 1-(3,4-Dihydroxy-5-nitrophenyl)-2-phenyl-1-ethanone]
IC50 (rat liver COMT): 696 nM
potency at inhibiting brain COMT compared with tolcapone (brain COMT; after oral administration, FIG. 1): much less potent than tolcapone
% inhibition of COMT activity, brain, 0.5 h (brain COMT; rat brain homogenate, 0.5 h after administration by gastric tube, mean ± S.E.M., n=4): 83.6 ± 1.3%
% inhibition of COMT activity, brain, 1 h (brain COMT; rat brain homogenate, 1 h after administration by gastric tube, mean ± S.E.M., n=4): 80.9 ± 2.7%
% inhibition of COMT activity, brain, 3 h (brain COMT; rat brain homogenate, 3 h after administration by gastric tube, mean ± S.E.M., n=4): 65.0 ± 3.9%
% inhibition of COMT activity, brain, 6 h (brain COMT; rat brain homogenate, 6 h after administration by gastric tube, mean ± S.E.M., n=4): 31.5 ± 3.2%
% inhibition of COMT activity, brain, 9 h (brain COMT; rat brain homogenate, 9 h after administration by gastric tube, mean ± S.E.M., n=4): 21.9 ± 2.7%
ED50 (brain COMT; rat, po, read-out: ED50 for inhibiting brain COMT): 5.3 ± 1.1 mg/kg
% inhibition of COMT activity, liver, 0.5 h (liver COMT; rat liver homogenate, 0.5 h after administration by gastric tube, mean ± S.E.M., n=4): 98.6 ± 0.4%
% inhibition of COMT activity, liver, 1 h (liver COMT; rat liver homogenate, 1 h after administration by gastric tube, mean ± S.E.M., n=4): 96.7 ± 1.7%
% inhibition of COMT activity, liver, 3 h (liver COMT; rat liver homogenate, 3 h after administration by gastric tube, mean ± S.E.M., n=4): 96.2 ± 0.8%
% inhibition of COMT activity, liver, 6 h (liver COMT; rat liver homogenate, 6 h after administration by gastric tube, mean ± S.E.M., n=4): 75.9 ± 4.2%
% inhibition of COMT activity, liver, 9 h (liver COMT; rat liver homogenate, mean ± S.E.M., n=4): 69.8 ± 3.6%
% inhibition of COMT activity, liver, 9 h (liver COMT; rat liver homogenate, mean ± S.E.M., n=4, listed as compound B): ~70%
ED50 (liver COMT; rat, po, read-out: ED50 for inhibiting liver COMT): 0.7 ± 1.1 mg/kg
